Assay results as given in article PMC4745898 (Science signaling, 2015).

Chains of the proteins cited; added tags and fusions are not shown.
UniProt Q6RI86, whole entry: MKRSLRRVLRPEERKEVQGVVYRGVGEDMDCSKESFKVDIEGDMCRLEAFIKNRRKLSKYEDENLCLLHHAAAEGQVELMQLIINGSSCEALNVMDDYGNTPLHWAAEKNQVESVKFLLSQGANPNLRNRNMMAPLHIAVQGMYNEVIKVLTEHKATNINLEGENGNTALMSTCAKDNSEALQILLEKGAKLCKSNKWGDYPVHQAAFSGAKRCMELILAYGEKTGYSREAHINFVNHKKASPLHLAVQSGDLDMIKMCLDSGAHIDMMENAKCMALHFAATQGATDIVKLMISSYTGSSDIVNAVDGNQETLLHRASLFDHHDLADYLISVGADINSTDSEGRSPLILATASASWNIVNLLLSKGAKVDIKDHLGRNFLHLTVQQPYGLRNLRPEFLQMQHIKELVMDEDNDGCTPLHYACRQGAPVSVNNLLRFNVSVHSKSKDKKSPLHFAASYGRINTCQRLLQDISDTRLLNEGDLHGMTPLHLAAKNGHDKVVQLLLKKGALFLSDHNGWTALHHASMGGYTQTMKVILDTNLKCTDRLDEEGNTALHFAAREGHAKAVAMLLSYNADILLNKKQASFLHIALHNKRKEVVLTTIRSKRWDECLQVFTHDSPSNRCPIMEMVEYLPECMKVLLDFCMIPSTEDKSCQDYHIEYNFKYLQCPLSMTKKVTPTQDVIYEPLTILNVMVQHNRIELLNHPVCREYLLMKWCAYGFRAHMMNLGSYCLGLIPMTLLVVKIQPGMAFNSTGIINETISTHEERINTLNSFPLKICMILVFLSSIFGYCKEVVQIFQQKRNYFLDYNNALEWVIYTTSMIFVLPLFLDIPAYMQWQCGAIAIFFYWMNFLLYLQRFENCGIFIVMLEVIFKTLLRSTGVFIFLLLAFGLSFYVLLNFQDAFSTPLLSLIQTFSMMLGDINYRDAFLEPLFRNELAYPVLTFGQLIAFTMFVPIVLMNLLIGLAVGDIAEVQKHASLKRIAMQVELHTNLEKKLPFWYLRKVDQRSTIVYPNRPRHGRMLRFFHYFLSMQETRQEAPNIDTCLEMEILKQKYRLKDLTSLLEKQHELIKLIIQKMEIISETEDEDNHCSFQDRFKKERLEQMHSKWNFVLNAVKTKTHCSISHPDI

Biological target: TRPA1 (Rattus norvegicus, UniProt Q6RI86)
Format: cell-based

C=CCN=C=S [AITC]
EC50: 4.4 µM
